# Assays:
# C6-P450 cells [1] = experiment: Trypsinization and replating assay; assay type: cell-based, rat
# Protocol: Trypsinization and replating assay: To determine the temporal kinetics of CPA-mediated cytotoxicity, 2×10^6 cells were plated onto each 10 cm dish. Twenty-four hours later, 0.5 mM CPA was added and cells were incubated for the times indicated in each figure. Cells were then trypsinized and replated at a density of 2×10^5 cells/10 cm dish. Nine days later, cell numbers were evaluated by Coulter counting.
# C6-P450 cells [2] = experiment: Cell proliferation assay
# [3] = tested on: C6 cells exposed to CM from C6-P450; experiment: C6 colony formation after conditioned medium from drug-exposed cells
smiles,measurement,setting,value
"CCN(CC)P1(=O)NCCCO1 (stereo not drawn) [DCPA, didechlorocyclophosphamide]",Proliferation of treated cells after replating,C6-P450 cells [1],had no effect
same,"Trypsinization and replating assay, cell count",C6-P450 cells [1],21.29±0.17
same,"Cell proliferation assay, number of cells",C6-P450 cells [2],22.57±0.44 ×10^6
same,Effect on cell proliferation,C6-P450 cells [2],had no effect
same,"Secretion effect, C6 colony number",[3],5±0.9
same,Toxicity of conditioned medium to C6 cell growth / colony formation,[3],highly toxic
